Measured values reported in ChEMBL document CHEMBL1133722 (J Med Chem, 2000).

Sequences of proteins named here, by UniProt entry; tags and fusion partners are left off.
UniProt P35372, whole entry, looked up: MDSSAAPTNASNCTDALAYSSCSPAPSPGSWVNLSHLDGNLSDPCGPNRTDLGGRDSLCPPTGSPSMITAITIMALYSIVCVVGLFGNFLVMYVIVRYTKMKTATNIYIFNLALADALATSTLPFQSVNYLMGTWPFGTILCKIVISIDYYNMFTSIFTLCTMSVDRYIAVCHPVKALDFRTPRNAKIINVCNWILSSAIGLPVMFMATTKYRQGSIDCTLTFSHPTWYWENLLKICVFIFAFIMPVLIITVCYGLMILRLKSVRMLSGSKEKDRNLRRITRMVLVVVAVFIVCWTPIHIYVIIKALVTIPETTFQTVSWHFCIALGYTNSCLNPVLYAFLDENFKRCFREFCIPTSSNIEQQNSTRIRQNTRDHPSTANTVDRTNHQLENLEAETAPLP

Columns and labels:
Mu-type opioid receptor [1] = biological target: T1, Mu-type opioid receptor (Homo sapiens, UniProt P35372); assay: Binding affinity using [3H]diprenorphine as the radioligand against wild-type Opioid receptor mu 1 in COS-7 cells
Mu-type opioid receptor [2] = biological target: T1, Mu-type opioid receptor; assay: Binding affinity using [3H]diprenorphine as the radioligand against K303E Opioid receptor mu 1 in COS-7 cells

Q: With CO[C@]12CC[C@@]3(C[C@@H]1C(C)(C)O)[C@H]1Cc4ccc(O)c5c4[C@@]3(CCN1CC1CC1)[C@H]2O5 as the compound, how does the Ki (Mu-type opioid receptor [1]) read?
A: 0.27 nM

Q: And the Ki (Mu-type opioid receptor [2])?
A: 0.33 nM
